Columns and labels:
[1] = system: Exenatide
[2] = system: M + His6_Chx^197_SAAG_G3SG3SG3S_hGH

For “furin (furin protease, purified enzyme added in vitro)”, the “cleavage by furin followed by mass spectrometry and ion chromatogram” value [1] was “exenatide incubated with furin remained intact” and the “cleavage by furin followed by mass spectrometry (0, 5, 24 h at 30 C)” value [2] was “After 5 hrs and 24 hrs, the Chx^197_SAAG-N3-HGH construct was cleaved by furin”.

Reference: patent publication US20250099599
